According to patent US6656911B2, “Serine protease inhibitors” (Cortech, Inc., priority 1994, dated 2003):
pKi: −log10 of the molar value.

Protein sequences, listed by entry. Tags and fused reporters are not part of them. Residues count along the entry.
UniProt P08246, 30-267 limits assumed: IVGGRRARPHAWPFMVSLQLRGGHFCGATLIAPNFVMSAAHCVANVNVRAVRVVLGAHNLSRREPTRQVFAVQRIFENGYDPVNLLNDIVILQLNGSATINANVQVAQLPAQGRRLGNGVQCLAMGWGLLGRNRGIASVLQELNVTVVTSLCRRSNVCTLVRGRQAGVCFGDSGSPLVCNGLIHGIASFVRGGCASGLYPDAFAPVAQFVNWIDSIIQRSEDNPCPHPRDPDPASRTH

biological target: human neutrophil elastase (HNE) (Homo sapiens, UniProt P08246); assay: HNE Ki of CE compounds, tested as described in WO 96/16080; assay type: biochemical; conditions: read-out: HNE Ki

| SMILES | pKi |
| --- | --- |
| CC(C)[C@H](NC(=O)[C@@H]1CCCN1C(=O)[C@@H](NC(=O)N1CCOCC1)C(C)C)C(=O)c1noc(CCN2CCOCC2)n1 | 7.07 |
| CC(C)[C@H](NC(=O)[C@@H]1CCCN1C(=O)[C@@H](NC(=O)N1CCOCC1)C(C)C)C(=O)c1noc(CCN(C)C)n1 | 6.90 |
| Cc1cccc(Cc2nnc(C(=O)C(C)(C)NC(=O)[C@@H]3CCCN3C(=O)[C@@H](NC(=O)OCc3ccccc3)C(C)C)o2)c1 | 7.14 |
| CC(=O)N1CC(=O)N(CC(=O)N[C@H](C(=O)c2nnc(Cc3cccc(C)c3)o2)C(C)C)C(Cc2ccccc2)C1=O (stereo partly shown) | 7.29 |
| CC(C)[C@H](NC(=O)[C@@H]1CCCN1C(=O)[C@@H](NC(=O)OCc1ccccc1)C(C)C)C(=O)c1noc(CCN(C)C)n1 | 7.91 |
| COC(=O)CCc1nc(C(=O)[C@@H](NC(=O)[C@@H]2CCCN2C(=O)[C@@H](NC(=O)OCc2ccccc2)C(C)C)C(C)C)no1 | 8.11 |

Stronger by pKi, values ahead:

| pKi | SMILES |
| --- | --- |
| 9.89 | COc1ccc(C(=O)N[C@H](C(=O)N2CCC[C@H]2C(=O)N[C@H](C(=O)c2noc(Cc3cccc(C(F)(F)F)c3)n2)C(C)C)C(C)C)cc1 |
| 8.82 | CC(C)[C@H](NC(=O)[C@@H]1CCCN1C(=O)[C@@H](NC(=O)OCc1ccccc1)C(C)C)C(=O)c1noc(CC23CC4CC(CC(C4)C2)C3)n1 |
| 9.30 | COc1cccc(Cc2nc(C(=O)[C@@H](NC(=O)[C@@H]3CCCN3C(=O)[C@@H](NC(=O)OCc3ccccc3)C(C)C)C(C)C)no2)c1 |
| 8.74 | CC(C)[C@H](NC(=O)[C@@H]1CCCN1C(=O)[C@@H](NC(=O)OCc1ccccc1)C(C)C)C(=O)c1noc(CCCc2ccccc2)n1 |
| 9.01 | CC(C)[C@H](NC(=O)CN(Cc1ccccc1)C(=O)[C@@H](NC(=O)OCc1ccccc1)C(C)C)C(=O)c1noc(Cc2cccc(C(F)(F)F)c2)n1 |
| 9.70 | CC(C)[C@H](NC(=O)[C@@H]1CCCN1C(=O)[C@@H](NC(=O)OCc1ccccc1)C(C)C)C(=O)c1noc(Cc2cccc(C(F)(F)F)c2)n1 |
| 8.20 | CC(C)[C@H](NC(=O)[C@@H]1CCCN1C(=O)[C@@H](NC(=O)OCc1ccccc1)C(C)C)C(=O)c1noc(CCN2CCOCC2)n1 |
